# In patent US20020019332A1, “METHOD OF INDUCING APOPTOSIS IN B-LYMPHOCYTES” (priority 1999, published 2002):
# Tested on: PKCζ
# Settings: PDBu-treated B cells, Western blot
compound,measurement,value
CCCC(=O)O[C@@H]1[C@@H](C)[C@@]2(O)[C@@H](C=C(CO)C[C@]3(O)C(=O)C(C)=C[C@@H]23)[C@@H]2C(C)(C)[C@]12OC(=O)CCC [PDBu],level of expression of PKCζ,decreased only slightly
